# Data as given in ChEMBL document CHEMBL4351013, “Carboxamides vs. methanimines: Crystal structures, binding interactions, photophysical studies, and biological evaluation of (indazole-5-yl)methanimines as monoamine oxidase B and acetylcholinesterase inhibitors” (Eur J Med Chem, 2019).
# Sequences of proteins named here, by UniProt entry; tags and fusion partners are left off.
# UniProt P27338, whole entry: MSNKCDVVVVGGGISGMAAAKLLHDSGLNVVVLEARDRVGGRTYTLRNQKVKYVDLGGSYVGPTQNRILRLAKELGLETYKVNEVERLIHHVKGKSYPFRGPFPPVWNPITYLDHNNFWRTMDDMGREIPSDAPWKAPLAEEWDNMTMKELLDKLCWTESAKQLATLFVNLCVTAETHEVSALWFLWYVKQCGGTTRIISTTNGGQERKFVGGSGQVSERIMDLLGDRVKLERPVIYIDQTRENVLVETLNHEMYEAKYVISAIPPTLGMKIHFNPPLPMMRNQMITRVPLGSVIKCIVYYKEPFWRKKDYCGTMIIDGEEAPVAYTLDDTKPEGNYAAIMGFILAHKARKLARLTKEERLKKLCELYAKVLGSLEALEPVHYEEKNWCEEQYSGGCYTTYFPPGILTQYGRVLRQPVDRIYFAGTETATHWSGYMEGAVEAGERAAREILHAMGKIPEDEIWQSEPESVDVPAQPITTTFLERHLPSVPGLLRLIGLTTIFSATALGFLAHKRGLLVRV
# Experiments:
# [1] = target: T1, Amine oxidase [flavin-containing] B (Homo sapiens, UniProt P27338); assay: Competitive inhibition of human recombinant MAO-B expressed in baculovirus infected BTI-TN-5B1-4 insect cells using p-tyramine as substrate by Lineweaver-Burk plot analysis
# [2] = target: T1, Amine oxidase [flavin-containing] B; assay: Competitive inhibition of human recombinant MAO-B expressed in baculovirus infected BTI-TN-5B1-4 insect cells using p-tyramine as substrate by Dixon- plot analysis
structure (smiles),measurement,setting,value
Cn1ncc2cc(C(=O)Nc3ccc(Cl)c(Cl)c3)ccc21,inhibition (INH),[1],Active
same,Ki,[2],0.22 nM
